Measurements taken from PubChem BioAssay AID588814 (The Scripps Research Institute Molecular Screening Center, 2011).
This is a selection; strong and weak results do not stand in their true shares. Some results for these compounds are left out of this collection, so the calls shown say nothing about other tests. Activity calls are given as the source filed them.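 Rule for the calls: active = activation above the run's mean compound activation plus 3 SD (cut at about 16% in these data); inactive = the rest.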

Protein sequences, listed by entry. Tags and fused reporters are not part of them.
UniProt P11229, whole entry: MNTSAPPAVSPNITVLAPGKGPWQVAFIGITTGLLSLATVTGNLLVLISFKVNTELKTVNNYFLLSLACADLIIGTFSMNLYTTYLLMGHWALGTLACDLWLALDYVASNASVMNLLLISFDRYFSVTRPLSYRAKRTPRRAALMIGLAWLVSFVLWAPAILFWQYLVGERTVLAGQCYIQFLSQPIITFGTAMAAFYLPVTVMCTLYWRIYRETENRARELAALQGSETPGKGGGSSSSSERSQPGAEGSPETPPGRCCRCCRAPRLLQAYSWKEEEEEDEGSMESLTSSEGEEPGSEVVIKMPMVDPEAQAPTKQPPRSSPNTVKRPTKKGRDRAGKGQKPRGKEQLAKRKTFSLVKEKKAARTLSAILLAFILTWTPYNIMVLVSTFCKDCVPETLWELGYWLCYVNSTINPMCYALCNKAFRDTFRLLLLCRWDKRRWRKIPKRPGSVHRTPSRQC

What follows are compounds tested against Muscarinic acetylcholine receptor M1 (Homo sapiens) (UniProt P11229) (assay: CHRM1 activation via calcium signal – Fluo-8 calcium fluorescence, CHO-K1 cells, HTS, primary screen (AID 588814;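 note: peak over basal fluorescence ratio within a 140 s kinetic read after compound addition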)). Conditions: CHO-K1 hM1, Fluo-8 calcium fluorescence, agonist mode; at 3 µM; hits give high values; 0% DMSO, 100% acetylcholine EC100.

Row | SMILES | activation
1 | O=C(OC1CN2CCC1CC2)C(CO)(c1ccccc1)c1ccccc1 (stereo not drawn) | inactive: -5.33%
2 | CN(C)c1cccc(C(=O)NCC2(N(C)C)CCCCC2)c1 | inactive: -5.39%
3 | O=C(OCCN1CCCC1)C(O)(c1ccccc1)c1ccccc1 | inactive: -7.97%
4 | CC(C)Oc1ccc(C(=O)NCC2(N(C)C)CCCCC2)cc1 | inactive: -6.25%
5 | COc1ccc(Br)c(C(=O)NCC2(N3CCCCC3)CCCCC2)c1 | inactive: -4.83%
6 | C=C(C)C#CC(O)(C(=O)OC1CCN(C)CC1)c1ccccc1 (stereo not drawn) | inactive: -8.25%
7 | COc1cc(C(=O)NCC2(N(C)C)CCCCC2)c([N+](=O)[O-])cc1OC | inactive: -7.58%
8 | CN(C)C1(CNC(=O)c2ccc(Br)cc2)CCCCC1 | inactive: -5.61%
9 | O=C(NCC1(N2CCCCC2)CCCCC1)c1cccc(Cl)c1 | inactive: -5.09%
10 | COc1ccc(Cl)cc1C(=O)NCC1(N(C)C)CCCCC1 | inactive: -9.33%
11 | COc1cccc(C(=O)NCC2(N3CCCCC3)CCCCC2)c1 | inactive: -4.88%
12 | CN(C)c1ccc(C(=O)NCC2(N(C)C)CCCCC2)cc1 | inactive: -6.05%
13 | Cc1ccccc1C(=O)NCC1(N2CCCCC2)CCCCC1 | inactive: -5.22%
14 | O=C(NCC1(N2CCCCC2)CCCCC1)c1cccc(Br)c1 | inactive: -2.48%
15 | Cc1cc(C(=O)NCC2(N3CCCCC3)CCCCC2)ccc1[N+](=O)[O-] | inactive: -5.7%
16 | COc1ccc(C(=O)NCC2(N(C)C)CCCCC2)cc1 | inactive: -3.08%
17 | O=C(NCC1(N2CCCCC2)CCCCC1)c1cc(F)c(F)cc1Cl | inactive: -6.54%
18 | C=CCN1CCN(CCOC(=O)C(O)(c2ccccc2)c2ccccc2)CC1 | inactive: -15.3%
19 | O=C(NCC1(N2CCCCC2)CCCCC1)c1cc([N+](=O)[O-])ccc1Cl | inactive: -7.67%
20 | Cc1ccc(C(=O)NCC2(N3CCCCC3)CCCCC2)cc1 | inactive: -8.68%
21 | CC(C)N1C(=O)CC2(CCN(CCOC(=O)C(O)(c3ccccc3)c3ccccc3)CC2)C1=O | inactive: -3.63%
22 | COc1cc(SC)ccc1C(=O)NCC1(N(C)C)CCCCC1 | inactive: -9.94%
23 | CCN(CC)CC(C)C(C)OC(=O)C(O)(c1ccccc1)c1ccccc1 (stereo not drawn) | inactive: -4.84%
